Experimental data reported in US12616750B2, “Combination therapy utilizing DNA alkylating agents and ATR inhibitors” (Merck Patent GmbH, priority 2018, dated 2026).
Values joined by “and” are separate entries in the source; they are usually repeats but may differ in a detail not shown here. Equal entries are not always repeated.

What was measured:
Type in all cases: cell-based
HCC-1954 cells = test: Dose-matrix combination assay (synergy score, Loewe model)
Method: (§1) Compounds were added using Tecan D300e liquid. […] Synergy scores were calculated using LOEWE synergy model.
The screening of synergistic drug combinations can be accomplished by performing a dose-matrix assay. Therefore, two drugs are serial diluted and mixed at every dose level, yielding a dose-matrix. The drug combination can be additive if the effects of the combination are identical to the added effects of the single agents. However, the effects of the combination might also be stronger than the activity of the single agents. This scenario is termed synergy, whereas weaker combination effects compared to the single agents are termed antagonism. […]
The screening was conducted by serial diluting the duocarmycin derivative DUBA (10) and the DDR inhibitors. […] The cell viability was measured after 6 d of treatment using the CellTiter-Glo assay kit. […] The quantification of the combination effects, however, was performed by calculating synergy scores. […]
The scattering of S was determined in a sham control experiment to define a cutoff for classifying a combination as truly synergistic or antagonistic. Thus seven different compounds were combined with itself on four different cell lines and the three-σ confidence interval was calculated around the mean of the measurement. […]

NCI-N87 cells = test: as above
Method: as §1
The screening of synergistic drug combinations can be accomplished by performing a dose-matrix assay. Therefore, two drugs are serial diluted and mixed at every dose level, yielding a dose-matrix. The drug combination can be additive if the effects of the combination are identical to the added effects of the single agents. However, the effects of the combination might also be stronger than the activity of the single agents. This scenario is termed synergy, whereas weaker combination effects compared to the single agents are termed antagonism. A dose-matrix assay is depicted schematically in FIG. 2 which illustrates the outcomes of a dose-matrix assay: additivity, antagonism and synergy.

A549 cells = test: Cytotoxicity (cell viability); conditions: Homo sapiens; A549 (EGFR +, MET +), Table 10
Method: Evaluation was performed using GraphPad Prism version 6.05.
as §1

Structure (SMILES)	Synergy score S (HCC-1954 cells)	Synergy score S (NCI-N87 cells)	IC50 (A549 cells) [nM]
C[C@@H]1COCCN1c1cc(-c2ccnn2C)c2ccnc(-c3ccn[nH]3)c2n1 [BAY1895344]	13.1±1.0 and 12.8±0.5	7.6 ± 0.4 and 7.0 ± 0.2	
COC(=O)c1cc2c3c(cc(O)c2[nH]1)N(C(=O)c1cc2cc(OC)c(OC)c(OC)c2[nH]1)C[C@H]3CCl [compound 13]			0.33 ± 0.07
